Literature values, collected in paper PMC12865480 (Pharmaceuticals, 2025).

By UniProt entry, the sequences of proteins in these tests, tags left out.
UniProt Q60492, whole entry: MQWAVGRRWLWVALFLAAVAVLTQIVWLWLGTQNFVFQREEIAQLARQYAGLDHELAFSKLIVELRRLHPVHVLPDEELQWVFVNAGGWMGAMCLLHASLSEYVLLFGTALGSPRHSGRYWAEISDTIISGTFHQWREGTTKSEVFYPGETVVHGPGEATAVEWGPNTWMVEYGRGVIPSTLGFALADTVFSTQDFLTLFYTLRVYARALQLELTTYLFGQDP

How the values were obtained:
[1] = target: σ1 receptor (Cavia porcellus, UniProt Q60492); details: read-out: Ki σ1; earlier study; cited from earlier work
[2] = tested on: human prostate cancer cell line DU145; details: result in words; cited from earlier work
[3] = tested on: capsaicin mouse model of neuropathic pain; details: result in words; cited from earlier work

| SMILES | Ki [1] [nM] | growth of the human prostate cancer cell line DU145 [2] | analgesic activity in the mouse capsaicin assay [3] |
| --- | --- | --- | --- |
| c1ccc(CNCC[C@@H]2CCO[C@H](c3ccccc3)O2)cc1 | 6 |  |  |
| c1ccc(CNCC[C@@H]2CCC[C@H](c3ccccc3)O2)cc1 |  | inhibited the growth | analgesically active |
| c1ccc(CNCC[C@H]2CCC[C@@H](c3ccccc3)O2)cc1 |  | inhibited the growth | analgesically active |
